Measured values: ChEMBL document CHEMBL4765376, “Discovery of an Orally Available Diazabicyclooctane Inhibitor (ETX0282) of Class A, C, and D Serine β-Lactamases” (J Med Chem, 2020)

Legend:
[1] = test system: Bacteria; test: Inhibition of bacterial OXA-23 assessed as ratio of Kinact/Ki using nitrocefin as chromogenic substrate by fluorescence plate reader analysis
[2] = test system: Bacteria; test: Inhibition of bacterial OXA-10 assessed as ratio of Kinact/Ki using nitrocefin as chromogenic substrate by fluorescence plate reader analysis
[3] = test system: Bacteria; test: Inhibition of bacterial OXA-48 assessed as ratio of Kinact/Ki using nitrocefin as chromogenic substrate by fluorescence plate reader analysis
[4] = test system: Bacteria; test: Inhibition of bacterial SHV-5 assessed as ratio of Kinact/Ki using nitrocefin as chromogenic substrate by fluorescence plate reader analysis
[5] = test system: Bacteria; test: Inhibition of bacterial CTX-M-14 assessed as ratio of Kinact/Ki using nitrocefin as chromogenic substrate by fluorescence plate reader analysis
[6] = test system: Enterobacter cloacae; test: Inhibition of beta lactamase P99 in Enterobacter cloacae assessed as ratio of Kinact/Ki using nitrocefin as chromogenic substrate by fluorescence plate reader analysis
[7] = test system: Bacteria; test: Inhibition of bacterial TEM-1 assessed as ratio of Kinact/Ki using nitrocefin as chromogenic substrate by fluorescence plate reader analysis
[8] = test system: Pseudomonas aeruginosa; test: Inhibition of beta lactamase AmpC in Pseudomonas aeruginosa assessed as ratio of Kinact/Ki using nitrocefin as chromogenic substrate by fluorescence plate reader analysis
[9] = test system: Escherichia coli; test: Inhibition of Escherichia coli PBP2 assessed as ratio of Kinact/Ki by SDS-PAGE based fluorescence assay
[10] = test system: Bacteria; test: Inhibition of bacterial CTX-M-15 assessed as ratio of Kinact/Ki using nitrocefin as chromogenic substrate by fluorescence plate reader analysis
[11] = test system: Bacteria; test: Inhibition of bacterial OXA-24 assessed as ratio of Kinact/Ki using nitrocefin as chromogenic substrate by fluorescence plate reader analysis
[12] = test system: Bacteria; test: Inhibition of bacterial KPC-2 assessed as ratio of Kinact/Ki using nitrocefin as chromogenic substrate by fluorescence plate reader analysis

For `CC1=C[C@H](C(N)=O)N2C[C@@H]1N(O[C@H](F)C(=O)O)C2=O`, the Ratio [1] was 1.54 10^3/M/s, the Ratio [2] was 6.8 10^2/M/s and the Ratio [3] was 5.3 10^4/M/s. For the same compound, the Ratio [4] was 3.2 10^6/M/s, the Ratio [5] was 2 10^6/M/s and the Ratio [6] was 3.9 10^4/M/s. The Ratio [7] was “inactive”, the Ratio [8] was 1.2 10^4/M/s and the Ratio [9] was 9.3 10^3/M/s. For the same compound, the Ratio [10] was 4.8 10^6/M/s, the Ratio [11] was 4.6 10^3/M/s and the Ratio [12] was 4.9 10^4/M/s.

The source made the active and inactive calls. The calls are words filed in the database; no cut-off is given here.
